The text below walks through data of BindingDB's records for doi:10.1124/jpet.105.083337 (Neurocrine Biosciences, 2005).

The chains behind the UniProt entries cited, without tags or fusion partners.
UniProt P32245, whole entry: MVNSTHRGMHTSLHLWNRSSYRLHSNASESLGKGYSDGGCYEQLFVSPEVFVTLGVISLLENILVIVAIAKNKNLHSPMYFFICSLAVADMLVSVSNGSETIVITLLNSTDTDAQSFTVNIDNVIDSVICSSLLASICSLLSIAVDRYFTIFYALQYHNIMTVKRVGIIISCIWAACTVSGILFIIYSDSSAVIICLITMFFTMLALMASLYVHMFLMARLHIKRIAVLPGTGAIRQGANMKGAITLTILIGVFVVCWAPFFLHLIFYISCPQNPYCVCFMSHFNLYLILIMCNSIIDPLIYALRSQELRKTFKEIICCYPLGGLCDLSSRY

This experiment has as its target Melanocortin receptor 4 (Homo sapiens, UniProt P32245).

As a reminder, the Ki is a dissociation constant, usually derived from enzyme kinetics or from competition with a known ligand.

Regarding `CC(C)C(O)(C(=O)OCC1=CCN2CCC(O)C12)C(C)O` (stereo unspecified) [CAS_114843], the affinity corresponds to a Ki of 0.0186 µM.
